These are literature values, as cited in patent US20120239131A1, “METHODS AND APPARATUS FOR TREATMENT OF ANEURYSMAL TISSUE” (Medtronic Vascular, Inc., priority 2011, published 2012).

The conditions of this series: in vivo; cited from earlier work.

`NCCCC[C@H](N[C@@H](CCc1ccccc1)C(=O)O)C(=O)N1CCC[C@H]1C(=O)O` [Lisinopril, lisinopril]: the Route of clearance/elimination result is on record as “cleared as the intact compound in the kidney”.
